Molecular target: T1, 11β-HSD1 (Homo sapiens, UniProt P28845)
T1 construct: Human liver microsomes were used as a source of 11β-HSD1 enzyme; tissue XenoTech Lot No. 1410013; host or cells: pooled human liver microsomes, mixed gender
Assay: Inhibition of 11β-HSD1 (cortisone to cortisol, human liver microsomes, cortisol ELISA)
Format: biochemical
Procedure: 11β-HSD1 assays: carbenoxolone (disodium salt) (Sigma-Aldrich, Poznań, Poland), cortisone, NADPH tetrasodium salt, phosphate buffer powder (Sigma-Aldrich, Poznań, Poland), pooled human liver microsomes, mixed gender, 1 mL, 20 mg/mL Lot No. 1410013—XenoTech, Cortisol Elisa Ref DkO001 Lot No. 5671A (DiaMetra, Spello, Italy), ELISA Kit for 11-Beta-Hydroxysteroid Dehydrogenase Type 1 Lot No. L211008799 (Cloud-Clone Corp., Wuhan, China), and PBS Lot No. H161008 (Pan Biotech, Aidenbach, Germany).
. Standard 96-well microplates were filled with reagent mixture: cortisone/NADPH (20 μL, to achieve the final concentration of 200 nM/2 μM), microsomes (10 μL, 1.13 μg of 11β-HSD1 in 1 mL) solution in PBS (final amount of 2.5 μg), phosphate buffer (60 μL, pH 7.4), and 10 µL of compounds 3a-3j dissolved in the mixture containing 1% of DMSO and 99% of water. The resulting solution with a final volume of 100 µL was incubated for 2.5 h at 37 °C. To stop the reaction, 10 µL of a 100 µM solution of 18β-glycyrrhetinic acid in PBS was added. The level of cortisol obtained in the reaction was measured by commercially available ELISA kit.
Calibration curves to determine IC50 values for compounds 3a–3i were obtained using their solutions at concentrations of 0.078, 0.156, 0.3125, 0.625, 1.25, 2.5, 5.0, and 10.0 µM and using standard procedure and conditions as described in the previous sections. […]

The chains behind the UniProt entries cited, without tags or fusion partners. Where a name states a change or a piece, a line headed by the entry shows the natural chain unless it says otherwise.
UniProt P28845: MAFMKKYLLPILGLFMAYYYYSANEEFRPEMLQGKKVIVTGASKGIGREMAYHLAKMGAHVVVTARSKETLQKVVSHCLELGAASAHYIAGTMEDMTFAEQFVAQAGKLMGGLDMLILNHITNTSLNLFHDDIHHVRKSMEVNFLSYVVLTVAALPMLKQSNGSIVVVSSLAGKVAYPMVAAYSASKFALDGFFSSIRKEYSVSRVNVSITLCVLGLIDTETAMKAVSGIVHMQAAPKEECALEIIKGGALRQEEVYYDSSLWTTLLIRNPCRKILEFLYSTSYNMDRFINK

IC50: 80 ± 6 nM
Structure (SMILES): CC1(C)[C@@H](OC(=O)CCC(=O)O)CC[C@]2(C)[C@H]3C(=O)C=C4[C@@H]5C[C@@](C)(C(=O)O)CC[C@]5(C)CC[C@@]4(C)[C@]3(C)CC[C@@H]12 [carbenoxolone, reference compound]
